{"source": "paper PMC10133546", "about": "“Simultaneous determination of multiple components in rat plasma by UHPLC-sMRM for pharmacokinetic studies after oral administration of Qingjin Yiqi Granules” (Frontiers in Pharmacology, 2023)", "key": {"[1]": {"assay": "Stability of the working solution (4°C for 1 month)", "assay_type": "physicochemical"}, "[2]": {"assay": "Stability of analytes in rat plasma (auto-sampler, freeze-thaw, room temperature, long-term)", "conditions": "for Freeze thaw cycles Accuracy (%): three freeze-thaw cycles; for −80°C for 1month Accuracy (%): −80°C 1 month"}}, "data": [{"smiles": "C[C@@]12C[C@@]3(O)O[C@@H](O1)[C@]1(COC(=O)c4ccccc4)[C@H]3C[C@@]12O[C@@H]1O[C@H](CO)[C@@H](O)[C@H](O)[C@H]1O", "note": "[paeoniflorin]", "values": [{"measurement": "Working solution Accuracy (%)", "setting": "[1]; 50 ng/mL", "result": 97.6, "unit": "%"}, {"measurement": "Working solution Accuracy (%)", "setting": "[1]; 100 ng/mL", "result": 98.1, "unit": "%"}]}, {"smiles": "COc1ccc(/C=C/C(=O)O)cc1O", "note": "[isoferulic acid]", "values": [{"measurement": "Working solution Accuracy (%)", "setting": "[1]; 500 ng/mL", "result": 101.0, "unit": "%"}, {"measurement": "Autosampler for 24 h Accuracy (%)", "setting": "[2]; 50 ng/mL, autosampler 24 h", "result": 97.1, "unit": "%"}, {"measurement": "Freeze thaw cycles Accuracy (%)", "setting": "[2]; 200 ng/mL", "result": 97.1, "unit": "%"}, {"measurement": "−80°C for 1month Accuracy (%)", "setting": "[2]; 200 ng/mL", "result": 105.0, "unit": "%"}, {"measurement": "Room temperature for 24 h Accuracy (%)", "setting": "[2]; 500 ng/mL, room temperature 24 h", "result": 97.1, "unit": "%"}]}, {"smiles": "O=C(/C=C/c1ccc(O)c(O)c1)O[C@@H]1C[C@](O)(C(=O)O)C[C@@H](O)[C@H]1O", "note": "[chlorogenic acid]", "values": [{"measurement": "Freeze thaw cycles Accuracy (%)", "setting": "[2]; 50 ng/mL", "result": 105.0, "unit": "%"}, {"measurement": "−80°C for 1month Accuracy (%)", "setting": "[2]; 100 ng/mL", "result": 102.0, "unit": "%"}]}, {"smiles": "COC(=O)C1=CO[C@@H](O[C@@H]2O[C@H](CO)[C@@H](O)[C@H](O)[C@H]2O)[C@H]2[C@@H]1C(=O)C[C@@H]2C", "note": "[verbenalin]", "values": [{"measurement": "Freeze thaw cycles Accuracy (%)", "setting": "[2]; 50 ng/mL", "result": 105.0, "unit": "%"}, {"measurement": "−80°C for 1month Accuracy (%)", "setting": "[2]; 50 ng/mL", "result": 105.0, "unit": "%"}]}, {"smiles": "O=C(O)[C@H]1O[C@@H](Oc2cc3oc(-c4ccccc4)cc(=O)c3c(O)c2O)[C@H](O)[C@@H](O)[C@@H]1O", "note": "[baicalin]", "values": [{"measurement": "Freeze thaw cycles Accuracy (%)", "setting": "[2]; 15.6 ng/mL", "result": 101.0, "unit": "%"}]}, {"smiles": "O=C(O)c1ccc(O)c(O)c1", "note": "[protocatechuic acid]", "values": [{"measurement": "Freeze thaw cycles Accuracy (%)", "setting": "[2]; 12.5 ng/mL", "result": 101.0, "unit": "%"}]}, {"smiles": "C[C@@H]1O[C@@H](Oc2c(-c3ccc(O)c(O)c3)oc3cc(O)cc(O)c3c2=O)[C@H](O)[C@H](O)[C@H]1O", "note": "[quercitrin]", "values": [{"measurement": "Working solution Accuracy (%)", "setting": "[1]; 12.5 ng/mL", "result": 101.0, "unit": "%"}]}]}
